Earlier results on 1 compound are cited in publication PMC6271771, “4-Amino-substituted Benzenesulfonamides as Inhibitors of Human Carbonic Anhydrases” (Molecules, 2014).

Amino acid sequences for entries named in this document (tags omitted). Residues count along the entry.
UniProt O43570, 30-289 limits assumed: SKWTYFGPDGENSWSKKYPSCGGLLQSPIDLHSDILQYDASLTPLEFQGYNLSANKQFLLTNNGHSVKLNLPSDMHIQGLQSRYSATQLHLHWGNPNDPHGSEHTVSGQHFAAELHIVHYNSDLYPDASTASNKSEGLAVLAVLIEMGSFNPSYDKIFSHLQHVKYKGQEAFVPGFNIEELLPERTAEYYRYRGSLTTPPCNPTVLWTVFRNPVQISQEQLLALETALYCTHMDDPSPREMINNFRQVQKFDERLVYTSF

The series addresses CA XII (Homo sapiens, UniProt O43570). Conditions: read-out: inhibition constant Ki for CA XII; previously reported; cited from earlier work.

By Ki is commonly meant the equilibrium dissociation constant of an inhibitor or competing ligand from its target. Take `Nc1ccc(S(N)(=O)=O)cc1` [Compound 1, 4-Aminobenzene-1-sulfonamide, reference compound]: the Ki was 0.037 µM.
